In test [1] the test system is guinea pig hippocampal synaptosomes. As to the kind of experiment: ACh release from guinea pig hippocampal synaptosomes (β-amyloid inhibition of K+-evoked release). It is filed as cell-based. The following applies: for ACh rel % Inh @ 100 μM: attenuation of β-amyloid's inhibition on potassium-evoked ACh release; for pIC50: 3 h. Here is the method:
ACh release from guinea pig hippocampal synaptosomes: Synaptosomes (P2 fraction) were prepared from guinea pig hippocampus as described previously and re-suspended in a Krebs-Ringer solution containing 0.1 μM [methyl-^3H]choline chloride (NEN, Boston, Mass.) and incubated at 37° C. for 30 min. Unincorporated choline was removed by washing and the synaptosomes were resuspended in Krebs-Ringer solution to 10 mg/mL. ACh release from synaptosomes was measured using the parallel superfusion chambers (Hugo Sachs Elektronik, March-Hugstetten, Germany) according to that described earlier (Wang, H. -Y. et al Neuropeptides 1999; 33, 197-205). The synaptosomal suspension (250 μL) was placed in each of the superfision chambers between two circular pieces of GF/B filters (Whatman, England). The chambers were perfused with oxygenated Krebs-Ringer containing 1 μM physostigmine hemisulfate at a flow rate of 0.5 mL/min. The onset of superfusion was defined as time zero (to). Starting 30 min after t0, fractions of the effluent were collected 12 times at 10-minute intervals.
The tissues were treated with peptides and ACh release was evoked by superfusing with 65 mM K^+-Krebs-Ringer (made by equimolar replacement of NaCl with KCl) for 30 seconds. […] Twenty minutes prior to K^+ stimulation (S2, S3 or S4), tissues were superfused with Krebs-Ringer solution that contained various concentrations of compound or vehicle (control) for 30 min. After perfusion, 5 mL of Scintsafe PlusTM 50% (Fisher Scientific) was added to the synaptosomes (on filter) and aliquots of the superfusates (0.5 mL). The amount of ^3H in the superfusate samples was measured by liquid scintillation spectrometry.
Tritiurn efflux into the superfusate was calculated as the fraction of ^3H content in the synaptosomes at the onset of the respective collection period. To calculate the amount of ^3H present in the superfusate after K^+ stimulation, the estimated basal efflux (the average of the 10-minute fractions immediately before and after each stimulation) was subtracted from the total efflux during the 10-minute fraction which began with the 30-second second K^+ stimulus. This difference was then used to calculate the percent of K^+-evoked release of ACh.
Data are expressed as the mean fractional ^3H release±S.E.M. Statistical differences between treatments were tested by Student's t test, two-tailed or the two-factor ANOVA as appropriate. Individual differences in the dose-response curve were evaluated by the Newman-Keuls multiple comparison test.

For a further test, the system named is Biotin-huma7-5. The arrangement: species or system human. The following applies: read-out: IC50, 125I-α-BTX binding to Biotin-huma7-5.

pIC50: −log10 of the molar value.

Turning to `CC(=O)N[C@@H](CO)C(=O)N[C@@H](CCC(=O)O)C(=O)N[C@@H](CCCNC(=N)N)C(=O)N[C@@H](C)C(=O)N[C@@H](Cc1ccc(O)cc1)C(=O)N[C@@H](CCC(=O)O)C(=O)N[C@@H](CS)C(=O)N[C@@H](CS)C(=O)N[C@@H](CCCCN)C(=O)N[C@@H](CCC(=O)O)C(=O)N1CCC[C@H]1C(N)=O` [compound 12], the “ACh rel % Inh @ 100 μM” value in test [1] amounted to 14%. Moreover, the pIC50 is less than 5.00 in test [1] and less than 4.00 with Biotin-huma7-5.
For `CC(=O)N[C@@H](CO)C(=O)N[C@@H](CCC(=O)O)C(=O)N[C@@H](CCCNC(=N)N)C(=O)N[C@@H](Cc1ccccc1)C(=O)N[C@@H](C)C(=O)N[C@@H](CCC(=O)O)C(=O)N[C@@H](CS)C(=O)N[C@@H](CS)C(=O)N[C@@H](CCCCN)C(=O)N[C@@H](CCC(=O)O)C(=O)N1CCC[C@H]1C(N)=O` [compound 13], in test [1], the “ACh rel % Inh @ 100 μM” value was found to be 18% and the negative logarithm of the IC50 (pIC50) is less than 5.00. The pIC50 in the test on Biotin-huma7-5 is less than 4.00.
For `CC(=O)N[C@@H](CO)C(=O)N[C@@H](CCC(=O)O)C(=O)N[C@@H](CCCNC(=N)N)C(=O)N[C@@H](Cc1ccccc1)C(=O)N[C@@H](Cc1ccc(O)cc1)C(=O)N[C@@H](C)C(=O)N[C@@H](CS)C(=O)N[C@@H](CS)C(=O)N[C@@H](CCCCN)C(=O)N[C@@H](CCC(=O)O)C(=O)N1CCC[C@H]1C(N)=O` [compound 14], in test [1], the “ACh rel % Inh @ 100 μM” value is given as 14% and the pIC50 was less than 5.00. The pIC50 with Biotin-huma7-5 is 5.02.
For the molecule `CC(=O)N[C@@H](CO)C(=O)N[C@@H](CCC(=O)O)C(=O)N[C@@H](CCCNC(=N)N)C(=O)N[C@@H](Cc1ccccc1)C(=O)N[C@@H](Cc1ccc(O)cc1)C(=O)N[C@@H](CCC(=O)O)C(=O)N[C@@H](C)C(=O)N[C@@H](CS)C(=O)N[C@@H](CCCCN)C(=O)N[C@@H](CCC(=O)O)C(=O)N1CCC[C@H]1C(N)=O` [compound 15], in test [1], the “ACh rel % Inh @ 100 μM” value turned out to be 19% and the pIC50 is less than 5.00. For the same molecule, the pIC50 in the test on Biotin-huma7-5 is less than 4.00.
Regarding `CC(=O)N[C@@H](CO)C(=O)N[C@@H](CCC(=O)O)C(=O)N[C@@H](CCCNC(=N)N)C(=O)N[C@@H](Cc1ccccc1)C(=O)N[C@@H](Cc1ccc(O)cc1)C(=O)N[C@@H](CCC(=O)O)C(=O)N[C@@H](CS)C(=O)N[C@@H](CS)C(=O)N[C@@H](C)C(=O)N[C@@H](CCC(=O)O)C(=O)N1CCC[C@H]1C(N)=O` [compound 16], in test [1], the “ACh rel % Inh @ 100 μM” value came to 19% and the pIC50 is less than 5.00. The negative logarithm of the IC50 (pIC50) with Biotin-huma7-5 was 5.89.
Regarding `CC(=O)N[C@@H](CO)C(=O)N[C@@H](CCC(=O)O)C(=O)N[C@@H](CCCNC(=N)N)C(=O)N[C@@H](Cc1ccccc1)C(=O)N[C@@H](Cc1ccc(O)cc1)C(=O)N[C@@H](CCC(=O)O)C(=O)N[C@@H](CS)C(=O)N[C@@H](CS)C(=O)N[C@@H](CCCCN)C(=O)N[C@@H](CCC(=O)O)C(=O)N[C@@H](C)C(N)=O` [compound 17], in test [1], the “ACh rel % Inh @ 100 μM” value was 59% and the pIC50 is greater than 5.00. In addition, in the test with Biotin-huma7-5, the pIC50 is less than 4.00.

As usually defined, the pIC50 is −log10 of the IC50, conventionally taken in molar units.

These data come from patent US20030092613A1, “Alpha7 nicotinic receptor peptides as ligands for beta amyloid peptides” (priority 2000, published 2003).
